## Antibody variant affinities, Ab-14 heavy chain, assay 1

Data: MIT Lincoln Laboratory AlphaSeq set, Engelhart et al. 2022, doi:10.1038/s41597-022-01779-4, as distributed in FLAb.

Antigen: PDVDLGDISGINAS, a 14-residue peptide of the SARS-CoV-2 spike HR2 region.

Ab-14 is the parent antibody, in scFv form: VH, then a 15-residue (Gly4Ser)3 linker, then VL. The light chain is unchanged in all variants.
VH: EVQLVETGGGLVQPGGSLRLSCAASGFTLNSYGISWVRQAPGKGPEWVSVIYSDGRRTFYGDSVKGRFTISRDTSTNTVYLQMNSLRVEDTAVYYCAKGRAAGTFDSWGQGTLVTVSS
VL: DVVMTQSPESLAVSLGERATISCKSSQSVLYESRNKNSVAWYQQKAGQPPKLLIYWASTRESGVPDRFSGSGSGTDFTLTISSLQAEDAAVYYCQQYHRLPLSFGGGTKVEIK

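The parent was found by panning a naive human phage display library on the peptide. Library AAYL49 holds single substitutions and randomly drawn double and triple substitutions in the CDRs. AlphaSeq pools MATa yeast showing the antibodies with MATalpha yeast showing the peptide. The frequency of each diploid, read from paired DNA barcodes, reflects how well the two displayed proteins bind. Scores were corrected for input abundance and mapped to Kd with protein pairs of known affinity run in the same pool. Each pool was mated in three replicate cultures.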

Changes read parent residue, position, new residue, counted from the first residue of the VH shown. Affinities are written as log10 Kd with Kd in nM; a lower number is a better binder. The mean shown is taken over the replicates in which the pair was detected. An entry "ND" has no value in the source: the pair was not observed among the diploids in that replicate. This suggests poor binding but is not conclusive.

changes	log10 Kd, replicates	log10 Kd (nM), mean	empty controls
S31M+D54A+V64L	ND / ND / ND	ND	0 of 9
N30I+V64R+R100Q	5.11 / ND / ND	5.11	3 of 9 (4.47)
D62P+A101M+T104Y	ND / ND / ND	ND	0 of 9
N30V+I51Y+K65A	ND / ND / ND	ND	0 of 9
S35D	ND / ND / ND	ND	0 of 9
N30A+Y32N+R57E	1.64 / 1.99 / 1.91	1.85	0 of 9
F59M+R100I+A101Y	1.27 / 1.48 / 1.46	1.40	2 of 9 (4.36)
F59Q+Y60P+V64E	ND / ND / ND	ND	0 of 9
Y32K+Y52V+V64S	ND / ND / ND	ND	0 of 9
F59D+Y60G+G103S	ND / ND / ND	ND	0 of 9
R57D+D62A+A102I	ND / ND / ND	ND	0 of 9
R56M+A101E	0.48 / 0.56 / 0.68	0.57	1 of 9 (2.69)
F27L+Y32A+R57N	5.11 / 4.66 / ND	4.89	1 of 9 (3.85)
F27K+S35A+R57L	ND / 4.98 / 4.19	4.58	4 of 9 (3.78)
I34Q+S35E+F59S	ND / ND / ND	ND	2 of 9 (2.84)
N30L+S31H+G33A	ND / 4.33 / 2.68	3.50	0 of 9
I51K+Y60W	4.04 / ND / ND	4.04	0 of 9
G26T+I34F+A102H	ND / 3.83 / 5.26	4.54	6 of 9 (4.67)
Y52L+A101D+F105N	3.54 / 3.53 / ND	3.54	0 of 9
R57K+S63V+D106Q	4.32 / ND / 5.65	4.99	0 of 9
Y32G+A101H+T104A	ND / ND / ND	ND	0 of 9
S31E+I51Y+D62R	ND / ND / ND	ND	0 of 9
L29P+G33A+D54I	4.69 / 4.99 / 4.45	4.71	5 of 9 (4.68)
S31D+Y32I+R56W	ND / ND / ND	ND	0 of 9
G55S+A102K+G103R	ND / ND / ND	ND	0 of 9
G26M+T28M+G61Y	ND / ND / ND	ND	0 of 9
G61C+R100I+D106Q	5.78 / 4.07 / ND	4.92	4 of 9 (3.44)
F27I+V64G	ND / ND / ND	ND	1 of 9 (3.07)
G26P+L29P+G61V	ND / ND / ND	ND	0 of 9
S35V+S53I	ND / ND / ND	ND	2 of 9 (3.89)

The first 4 entries again:

changes,"log10 Kd, replicates","log10 Kd (nM), mean",empty controls
S31M+D54A+V64L,ND / ND / ND,ND,0 of 9
N30I+V64R+R100Q,5.11 / ND / ND,5.11,3 of 9 (4.47)
D62P+A101M+T104Y,ND / ND / ND,ND,0 of 9
N30V+I51Y+K65A,ND / ND / ND,ND,0 of 9

Background: pairings of library AAYL49 with three empty control strains gave a value in 15% of cases (median 4.06, 5th percentile 2.83). Values in that range, when seen in few replicates, are hard to tell from nonspecific mating. The control count says in how many pairings with the empty strains this scFv gave a signal, with their mean in brackets.